According to patent publication US7951954B2, “Bezothiazol derivatives as Beta2 adrenoreceptor agonists” (AstraZeneca AB, priority 2006, dated 2011):
Counter-ions that a name gives are not always drawn.

Chains of the proteins cited; added tags and fusions are not shown.
UniProt P07550, whole entry: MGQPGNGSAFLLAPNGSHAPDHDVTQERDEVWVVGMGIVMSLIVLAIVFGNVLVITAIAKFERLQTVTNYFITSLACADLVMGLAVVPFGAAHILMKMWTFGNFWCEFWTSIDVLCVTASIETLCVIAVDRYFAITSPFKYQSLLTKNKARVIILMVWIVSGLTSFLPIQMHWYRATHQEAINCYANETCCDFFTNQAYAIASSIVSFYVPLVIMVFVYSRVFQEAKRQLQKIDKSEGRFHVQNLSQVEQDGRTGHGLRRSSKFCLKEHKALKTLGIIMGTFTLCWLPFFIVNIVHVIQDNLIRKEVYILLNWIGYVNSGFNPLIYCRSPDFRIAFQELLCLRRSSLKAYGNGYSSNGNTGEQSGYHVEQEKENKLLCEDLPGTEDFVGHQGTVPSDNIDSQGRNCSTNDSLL

Molecular target: T1, Adrenergic β2 (Homo sapiens, UniProt P07550)
T1 construct: endogenous in cells; host or cells: H292 cells
Assay: Adrenergic β2 mediated cAMP production in H292 cells (AlphaScreen cAMP detection)
Format: cell-based
Conditions: 300 μM rolipram, 10 minutes with compound, read-out: β2 pEC50 (converted)

Compound | EC50
O=c1[nH]c2c(O)ccc([C@@H](O)CNCCc3cccc(CNCc4ccccc4Cl)c3)c2s1 [Example 3, 7-[2-(2-{3-[(2-Chloro-benzylamino)-methyl]-phenyl}-ethylamino)-1R-hydroxy-ethyl]-4-hydroxy-3H-benzothiazol-2-one bis-trifluoroacetate salt] | 0.316 nM
COc1ccccc1CNCc1cccc(CCNC[C@H](O)c2ccc(O)c3[nH]c(=O)sc23)c1 [Example 36, 4-Hydroxy-7-[1R-hydroxy-2-(2-{3-[(2-methoxy-benzylamino)-methyl]-phenyl}-ethylamino)-ethyl]-3H-benzothiazol-2-one bis-trifluoroacetate salt] | 0.631 nM
